The values below are quoted from earlier work in patent publication US20160355464A1, “FUMARATE COMPOUNDS, PHARMACEUTICAL COMPOSITIONS THEREOF, AND METHODS OF USE” (priority 2015, published 2016).

For the series the following is noted: ALS patients.

For `Nc1nc2ccc(OC(F)(F)F)cc2s1` [riluzole], the “extension of survival in ALS” value is “about three”.
